# Yeast mating assay 1: variants of the scFv Ab-14

All variants were tested on one target, the spike HR2 peptide PDVDLGDISGINAS (SARS-CoV-2).

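The starting antibody came from a phage panning campaign against this peptide. Variants in AAYL50 differ from the parent at up to three CDR positions; double and triple changes were sampled at random. The assay is AlphaSeq: two haploid yeast populations carry antibody and antigen on their surface. Mating (16 h, 30 °C) was followed by selection of diploids and sequencing of their barcodes. Read counts were normalised to the haploid input and turned into Kd by a linear fit to BCL2-family pairs of known affinity, for each replicate. There are three technical replicates.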

The variants keep the heavy chain, the linker and the frameworks of Ab-14 (scFv order VH, a 15-residue (Gly4Ser)3 linker, VL).
VH: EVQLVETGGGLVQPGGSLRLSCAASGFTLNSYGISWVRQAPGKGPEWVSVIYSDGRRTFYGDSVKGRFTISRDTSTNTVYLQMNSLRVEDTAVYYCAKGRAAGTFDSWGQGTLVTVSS
VL: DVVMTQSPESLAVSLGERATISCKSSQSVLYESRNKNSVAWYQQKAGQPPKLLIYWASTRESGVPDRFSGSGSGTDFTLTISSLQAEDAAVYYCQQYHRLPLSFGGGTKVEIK

Variants are written as CDR1, CDR2 and CDR3 of the light chain (limits as in the source). Parent: KSSQSVLYESRNKNSVA, WASTRES, QQYHRLPLS. Scale: log10 of Kd in nM, estimated from mating counts; low values are strong binders. The mean shown is taken over the replicates in which the pair was detected. A pair that was not seen in any replicate is written "no signal"; this usually means weak binding, but a binder can also be missed.

CDR-L1 | CDR-L2 | CDR-L3 | mean log10 Kd (nM) | detected | signal with controls
NSSQSILYESRNKNSVA | WASTRES | QQYHRLKLS | 1.98 | 3/3 | 2/9
KSSQSVLYESRNKNNVA | WESTRES | QQYHREPLS | 2.54 | 1/3 | 0/9
KSYQSVLYESRNKNNVA | WASTRES | HQYHRLPLS | no signal | 0/3 | 1/9
KSSQSVLNESRNKNSVA | WASTRPS | QQYHRLPLS | 1.31 | 3/3 | 1/9
KSSTSVLYESRNKNSYA | WASTRED | QQYHRLPLS | 2.41 | 1/3 | 1/9
ESSQSVLYESRNKNSVA | WASTRES | QQHHRLPLK | 4.32 | 2/3 | 6/9
KQSQSVLYESHNKNSVA | WASTRES | QQYHRLPLS | 0.99 | 3/3 | 0/9
KSSQSVLYESKYKNSVA | WASTRES | QQYHYLPLS | 2.14 | 3/3 | 4/9
KSSQSVLCESRNKNSVA | WASNRES | QQYHRLPLS | 2.01 | 3/3 | 4/9
KSSQSVLYEHRKKNSVA | WASTRES | QQYHRLPLR | no signal | 0/3 | 0/9
KSSQSEIYESRNKNSVA | WASTRES | QWYHRLPLS | no signal | 0/3 | 0/9
KSSNSVLYESRKKCSVA | WASTRES | QQYHRLPLS | 3.49 | 1/3 | 2/9
KSSQSILYESRNKNSVA | WASTRFS | QMYHRLPLS | 3.38 | 3/3 | 0/9
KSSQSVLYESRNKNSVT | WASTRES | QQPHGLPLS | 3.58 | 1/3 | 3/9
KSSQEVLYESTNKNSVA | WASTRES | QQYHRLPLW | 2.94 | 3/3 | 0/9
KSSQSVIYESRNLNSVA | WASTRES | QQYHRVPLS | 6.21 | 1/3 | 0/9
KQSQSVLYESRNKNSVA | SASTNES | QQYHRLPLS | 4.98 | 3/3 | 7/9
KSSSSVLYESRNRNSVA | WASTRES | CQYHRLPLS | 4.23 | 2/3 | 5/9
KSSQSVLYESRNKNSVA | WASGRPS | QQYHRPPLS | 2.93 | 1/3 | 2/9
KSTQSVLYESRNKNSVA | WASTRES | KQYQRLPLS | 1.65 | 3/3 | 2/9
KSSQSVLCESRNKNNVA | WASTRES | QQYHRLPLV | 1.82 | 3/3 | 0/9
KSSQSVLYESRNTNSPN | WASTRES | QQYHRLPLS | no signal | 0/3 | 0/9
KSSQSVLYESRNKKSVA | WASTRES | QQYHRYPLS | 1.32 | 3/3 | 0/9
KSSQSVLYESRNKNSGA | WASTRFS | QQYSRLPLS | no signal | 0/3 | 0/9
KSSQSVLYESRNKTSVA | WASTTES | CQYHRLPLS | no signal | 0/3 | 1/9
KSSQSVLCESRNKNSVA | WASTRES | NQYHRNPLS | 3.38 | 1/3 | 0/9
KSSQSVLYERRNKNSVA | WAETRES | QQKHRLPLS | 3.33 | 3/3 | 5/9
KSKQSVLYESRNKESIA | WASTRES | QQYHRLPLS | 1.11 | 3/3 | 3/9
KSGQSVLYRSRNKNSVA | TASTRES | QQYHRLPLS | 1.95 | 3/3 | 5/9
KSSQCVLYESRNKNSVA | WASTHEC | QQYHRLPLS | no signal | 0/3 | 1/9
KSSQSVLYPSRNKKGVA | WASTRES | QQYHRLPLS | 3.15 | 3/3 | 1/9
DSSTSVLYESRNKNFVA | WASTRES | QQYHRLPLS | no signal | 0/3 | 2/9
KSSQSVLYESRNCYSVA | WASTRES | RQYHRLPLS | 1.17 | 3/3 | 2/9
KSSQSVLYESRNKNSVA | WMSTRES | QQYHKLELS | no signal | 0/3 | 0/9
KSSQYVRYESRNKNSVA | WASVRES | QQYHRLPLS | 1.26 | 3/3 | 1/9
KVSQSVLYESQNKNSVA | WASTRES | QQYHRLPLI | 0.27 | 3/3 | 0/9
KSSQSVLYESRNKNSEA | WASTRES | QQLHALPLS | 3.08 | 1/3 | 0/9
KSSQSVLYESRNPFSVA | WASTRES | QQQHRLPLS | no signal | 0/3 | 0/9
KSSQTVLYESRNKNWVA | WAATRES | QQYHRLPLS | no signal | 0/3 | 0/9
KSSQSVLYESRNKNTVA | WASTRFS | QQYHTLPLS | 3.16 | 3/3 | 2/9
KSSQSVLFESRMKNSVA | WASTRES | QQTHRLPLS | 5.55 | 3/3 | 6/9
KSSQPDLYESRNKNSVA | WASTRES | EQYHRLPLS | 1.44 | 3/3 | 2/9
KSSQSVLYESRNKNSVA | WAYTFES | QQYHRLPAS | no signal | 0/3 | 2/9
FSSQSVLYESRNKNIVA | WASTRES | QYYHRLPLS | 5.13 | 2/3 | 4/9
KSGQSGMYESRNKNSVA | WASTRES | QQYHRLPLS | 0.66 | 3/3 | 1/9
KSSQSVLYESQGKNPVA | WASTRES | QQYHRLPLS | 2.06 | 3/3 | 6/9
KSSQSVLYESRNKNSVA | WARTRES | QQYHRLNLS | 1.86 | 3/3 | 3/9
KSSQSVWPESRNKNSVA | WASTRES | QQYHRLFLS | no signal | 0/3 | 0/9
KSSQSVLGESRNKNSVA | WASTSHS | QQYHRLPLS | 3.13 | 3/3 | 1/9
KSSQSVLNESRNKNSVA | SASTCES | QQYHRLPLS | 1.47 | 3/3 | 0/9
KSSQSVLYESRYKASPA | WASTRES | QQYHRLPLS | 6.03 | 1/3 | 4/9
QSSQSVLYESRNKNSVA | WAYTREW | QQYHRLPLS | 2.35 | 3/3 | 2/9
KSSQSVLYESNNKNSVA | WACTRES | QQYHRLPLS | 3.03 | 3/3 | 0/9
KSSQSVLYESRNKLSVA | WASTRES | QFYHRLPNS | no signal | 0/3 | 3/9
KSSQSVLYELRNKNSVA | WASTRES | QQYHRSPLS | 3.84 | 1/3 | 2/9
KSSQSVLYESRNKNSVA | YASTREC | QQYHRLPLS | 1.10 | 3/3 | 2/9
KSSISVLYESRNKNSVY | WASTRES | QQYHRLPLR | no signal | 0/3 | 0/9
KSSQSVIYESRNKNSVA | QASTRES | QQYHRGPLS | no signal | 0/3 | 5/9
KSSQSVLYESRNANSVA | WAKTRES | QQNHRLPLS | 4.45 | 1/3 | 0/9
KSSQSVLYESRNKNAVA | WASTHES | QQYHRIPLS | 3.71 | 3/3 | 3/9

Empty control strains, which show no peptide, gave a signal in 18% of pairings with library AAYL50; the median was 4.19 and 95% of these signals were weaker than 2.99. No background was subtracted. The control count says in how many pairings with the empty strains this scFv gave a signal. Parent in this assay: reference entry 0.65, copy in this library 1.68.

Reference: Engelhart et al. 2022, doi:10.1038/s41597-022-01779-4. File: FLAb, binding data.